# scFv variants of Ab-14 (heavy chain) against a SARS-CoV-2 spike peptide

The measurements come from Li et al. 2023 (doi:10.1038/s41467-023-39022-2) through the FLAb antibody collection.

Target: peptide PDVDLGDISGINAS, taken from heptad repeat 2 (HR2) of SARS-CoV-2 spike.

The variants keep the light chain, the linker and the frameworks of Ab-14 (scFv order VH, a (GGGGS)3 linker, VL).
VH: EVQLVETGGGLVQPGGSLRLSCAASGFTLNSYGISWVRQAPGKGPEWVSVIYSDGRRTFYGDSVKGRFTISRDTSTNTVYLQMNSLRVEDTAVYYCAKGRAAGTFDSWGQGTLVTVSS
VL: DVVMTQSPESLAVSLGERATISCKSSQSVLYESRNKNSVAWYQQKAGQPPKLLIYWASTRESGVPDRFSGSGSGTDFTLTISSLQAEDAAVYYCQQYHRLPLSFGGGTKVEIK

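The parent was found by panning a naive human phage display library on the peptide. This is the validation round: designs drawn from the data on random variants, tested in the same kind of assay. Several design methods are mixed in this list. Affinity was read by AlphaSeq, a pooled yeast mating assay with surface-displayed partners. The frequency of each diploid, read from paired DNA barcodes, reflects how well the two displayed proteins bind. Each replicate has its own calibration line, from reference interactions of the BCL2 family. The assay was run in six technical replicates.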

The parent's heavy chain CDRs are GFTLNSYGIS, VIYSDGRRTFYGDSVK, GRAAGTFDS; each variant's own CDRs replace them letter for letter. This list holds designs with at most six substitutions. Values are apparent Kd, the geometric mean of the replicates that gave a signal; lower means stronger binding. "nd" means that the variant was in the library but no mating with the target was seen in any replicate; the authors take this as a sign of poor binding, and no number exists. Of ten entries with the parent sequence, four were seen in most replicates (averages 2.2 nM to 240 nM), three in one and three in none, so single entries are noisy.

* GFELNSYGIS, VIYSDGRRTFYGDQVK, GRTAGTFDS: 12 nM (6 of 6 replicates; controls 0 of 18)
* GFTLNQYGIS, VIYSDGRRTFYVDSVK, GRLAGTFDT: 25 nM (6 of 6 replicates; controls 1 of 18)
* GFTLNSYGIT, VIYADGRRTFYGDSVK, GRAWGTNKE: nd (0 of 6 replicates; controls 0 of 18)
* GFDLNSYGIS, VIYSDGRRTFYVDSVK, GRTAGTFDA: 1.6 nM (6 of 6 replicates; controls 0 of 18)
* GFTINSYGYS, VIYSDGRRTFYHDSVK, GRAAGTFIS: nd (0 of 6 replicates; controls 0 of 18)
* GFLLNNYGIS, VIYSDGRRTFYDDSVK, GQLAGTFDS: 7.5 nM (6 of 6 replicates; controls 0 of 18)
* GFSLNSYGIS, VIYSDGRRTFYGDRVK, GEAAGTFDS: 3.8 nM (6 of 6 replicates; controls 0 of 18)
* GFHLNSYGIH, VIYSDGRRTFYGDSVK, GRNAGTPNE: nd (0 of 6 replicates; controls 1 of 18)
* GFSLNSYGIS, VIYSDGRRTFYQDSVK, GRSAGTFDS: 9.8 nM (1 of 6 replicates; controls 0 of 18)
* GFTLNEYGIS, VIYSDGRRTFYGDSVK, GRAPGTFDS: 4.1 nM (6 of 6 replicates; controls 1 of 18)
* GRTLNSYGIS, VIYSDGRRTAYGDSVK, GRAAGTPDS: 130 nM (2 of 6 replicates; controls 1 of 18)
* GFTLNSYGIS, VIYSDGRRTFYGDSVK, GRAAGTFDM: 180 nM (4 of 6 replicates; controls 0 of 18)
* GFELNSYGIS, VIYADGRRTFYGDSVK, GRAAGTNKS: 1.5 µM (2 of 6 replicates; controls 0 of 18)
* GFDLNSYGIS, VIYSDGRRTFYGDGVK, GRAAGHFNS: nd (0 of 6 replicates; controls 0 of 18)
* GFTLNSYGIS, VIYSDGRRTFYSDSVK, GKAAGTFDW: 35 nM (6 of 6 replicates; controls 0 of 18)
* GFSLNSYGIS, VIYSDGRRTFYGDGVK, GRTAGTFDS: 9.6 nM (6 of 6 replicates; controls 0 of 18)
* GFTLNSYGIS, VIYSDGKRTFYGDSVK, GRTAGTFDV: 1.2 nM (2 of 6 replicates; controls 0 of 18)
* GNDLNSYGIS, VIYSDGRRTFYGDSVK, GRAATWFNS: nd (0 of 6 replicates; controls 0 of 18)
* GFTLNSYGIS, VIYSDGRRTFYADSVV, GRATGTFDV: nd (0 of 6 replicates; controls 0 of 18)
* GFTLNEYGIS, VIYSDGRRTFYGDSVK, GRIAGTFDA: 600 pM (6 of 6 replicates; controls 0 of 18)
* GFDLNEYGIS, VIYADGRRTFYSDSVK, GTAAGTFDM: 420 pM (6 of 6 replicates; controls 0 of 18)
* GFVLNSYGIS, VIYSDGRRTFYDDSVK, GQTAGTFDS: 16 nM (5 of 6 replicates; controls 0 of 18)
* GFSLNSYGIS, VIYSDGRRTFYGDAVK, GEAAGTFDN: 6.8 nM (6 of 6 replicates; controls 3 of 18)
* GFTLNEYGIS, VIYSDGRRRFYTDSVK, GRQAGTFDS: 2.2 nM (6 of 6 replicates; controls 0 of 18)
* GFTLNSYGIS, VIYSDGRRTFYGDSVK, GRLTGTFDS: nd (0 of 6 replicates; controls 0 of 18)
* GFSLNEYGIS, VIYSDGRRTFYSDSVK, GSAAGTFDS: 1.5 nM (6 of 6 replicates; controls 1 of 18)
* GFVLNSYGIS, VIYADGRRTFYGDSVK, GQAAGTFDT: 1.3 nM (6 of 6 replicates; controls 0 of 18)
* GFTLNSYGIS, VIYSDGRRTFYKDSVK, GKEAGTFDT: nd (0 of 6 replicates; controls 2 of 18)
* GFTLQSYGIS, VIYSDGRRIFYGDSVK, GRAAGTALS: 24 nM (1 of 6 replicates; controls 1 of 18)
* GFELNSYGIS, VIYSDGRRTFYGDAVK, GRNAGTFDS: 12 nM (6 of 6 replicates; controls 0 of 18)
* GFTLNSYGIS, VIYSDGRRTSYGDSVK, GNAAGTFDS: 5.0 nM (4 of 6 replicates; controls 0 of 18)
* GFDLNSYGIS, VIYSDGRRTFYGDSVK, GRAAGFFMS: nd (0 of 6 replicates; controls 0 of 18)
* GFDLNEYGIS, VIYADGRRTFYVDSVK, GEAAGTFDS: 79 pM (6 of 6 replicates; controls 0 of 18)
* GFTLNSYGIS, VIYSDGRRTFYGDSVK, GQADGTFDS: 380 nM (1 of 6 replicates; controls 0 of 18)
* GFTLNDYGIS, VIYSDGRRTFYGDSVK, GKHAGTFDS: 2.2 nM (6 of 6 replicates; controls 0 of 18)
* GFSLNSYGIS, VIYSDGRRTFYTDDVK, GQAAGTFDS: 170 pM (4 of 6 replicates; controls 0 of 18)
* GFDLNEYGIS, VIYADGRRTAYQDSVK, GEAAGTFDS: 600 pM (6 of 6 replicates; controls 0 of 18)
* GFTLNSYGIS, VIYSDGRRTFYGDSVK, GKQAGTFDT: 32 nM (5 of 6 replicates; controls 0 of 18)
* GFSLNEYGIS, VIYSDGRRTFYGDQVK, GQTAGTFDS: 2.0 nM (6 of 6 replicates; controls 0 of 18)
* GFQLNSYGIS, VIYSDGRRTFYIDSVK, GNAAGTFDS: 5.1 nM (6 of 6 replicates; controls 0 of 18)
* GFTINSYGIS, VIYSDGRRTFYGDSVK, GRAAGTFIS: nd (0 of 6 replicates; controls 0 of 18)

The 2 strongest on average among those seen in every replicate, once more:

* GFDLNEYGIS, VIYADGRRTFYVDSVK, GEAAGTFDS = 79 pM (6 of 6 replicates; controls 0 of 18)
* GFDLNEYGIS, VIYADGRRTFYSDSVK, GTAAGTFDM = 420 pM (6 of 6 replicates; controls 0 of 18)

The authors' rule: three or more of the six replicates give a measured affinity, fewer mean a poor binder. Empty control strains, which show no peptide, gave a signal in 1% of pairings with all heavy chain designs; the median was 120 nM and 95% of these signals were weaker than 7.0 nM. No background was subtracted. The control count says in how many pairings with the empty strains this scFv gave a signal. The range of this assay differs from that of the first round, and the authors advise against merging the two.